Conditions: LDPE containers; e-beam doses up to 25 kGy with freezing (sample 12006)

sodium chlorite
concentration of sodium chlorite following electron-beam terminal sterilization: remained stable

— patent US20210338716A1, “Sodium Chlorite Compositions with Enhanced Anti-Viral and Anti-Microbial Efficacy and Reduced Toxicity” (iRenix Medical, Inc., priority 2020, published 2021)
